Measurements taken from patent US20240360179A1, “STAPLED PEPTIDES AND METHODS THEREOF” (FOG PHARMACEUTICALS, INC., priority 2021, published 2024).

By UniProt entry, the sequences of proteins in these tests, tags left out.
UniProt P35222, whole entry: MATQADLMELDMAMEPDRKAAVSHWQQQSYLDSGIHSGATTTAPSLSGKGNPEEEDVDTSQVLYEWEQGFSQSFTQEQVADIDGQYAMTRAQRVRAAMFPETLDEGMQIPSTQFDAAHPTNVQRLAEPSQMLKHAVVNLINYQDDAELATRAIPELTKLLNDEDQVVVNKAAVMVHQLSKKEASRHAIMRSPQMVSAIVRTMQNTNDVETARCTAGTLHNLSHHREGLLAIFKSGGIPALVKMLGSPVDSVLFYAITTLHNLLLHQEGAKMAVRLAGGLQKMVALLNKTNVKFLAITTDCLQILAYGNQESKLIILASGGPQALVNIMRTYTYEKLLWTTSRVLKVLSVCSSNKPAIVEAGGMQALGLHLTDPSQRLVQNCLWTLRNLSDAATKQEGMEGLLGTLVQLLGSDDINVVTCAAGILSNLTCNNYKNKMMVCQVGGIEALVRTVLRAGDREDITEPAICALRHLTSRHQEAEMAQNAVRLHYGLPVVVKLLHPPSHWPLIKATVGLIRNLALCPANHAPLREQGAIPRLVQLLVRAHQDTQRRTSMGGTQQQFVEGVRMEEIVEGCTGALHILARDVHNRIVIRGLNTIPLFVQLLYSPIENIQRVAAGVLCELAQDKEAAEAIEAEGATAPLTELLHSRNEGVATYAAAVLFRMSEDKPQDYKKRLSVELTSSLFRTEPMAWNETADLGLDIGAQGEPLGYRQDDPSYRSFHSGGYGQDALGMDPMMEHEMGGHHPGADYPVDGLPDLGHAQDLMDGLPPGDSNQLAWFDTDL

How the values were obtained:
[1] = molecular target: T1, full-length B-Catenin (Uniprot ID P35222) (Homo sapiens, UniProt P35222); assay: biochemical; assay type: binding; details: beta-Catenin FP IC50 (nM), competition fluorescence polarization
T1 construct: 10 nM full-length B-Catenin (Uniprot ID P35222)

[2] = molecular target: beta-catenin/TCF4 interaction (Homo sapiens, UniProt P35222); assay: cell-based; design: host or cells: HEK293; details: NanoBRET Abs IC50 (uM), absolute IC50

Q: For `CCCC[C@@H]1NC(=O)[C@]23CCN(C2)C(=O)OCCCC=CCCCC2(CCCC=CC[C@]4(CCCN4C(C)=O)C(=O)N[C@@H](CC(=O)O)C(=O)N[C@@H](CC(C)(C)C)C(=O)N2)C(=O)N[C@@H](CC(=O)O)C(=O)N[C@@H](Cc2cccc(C(=O)O)c2)C(=O)NC(C)(C)C(=O)N[C@@H](C)C(=O)N[C@@H](Cc2ccccc2)C(=O)N[C@@H](CCCCNC(=O)CC[C@@H](C(=O)N[C@@H](C)C(N)=O)NC(=O)[C@H](Cc2ccc(Cl)c(Cl)c2)NC1=O)C(=O)N3` (single isomer, unassigned) [I-473, Ac-PL3-Asp-Npg-B5-Asp-3COOHF-Aib-Ala-Phe-Lys*3-PyrS2-nLeu-34ClF-GlnR*3-Ala-NH2], which IC50 [1] is on record?
A: < 50 nM

Q: And the IC50 [2]?
A: 3 to 10 µM

Q: How did the IC50 [1] turn out when `CC(=O)N1CCC[C@]12CC=CCCCC1(CCCC=CCCCOC(=O)N3CC[C@@]4(C3)NC(=O)[C@H](CCCCNC(=O)CC[C@@H](C(=O)N[C@@H](C)C(N)=O)NC(=O)[C@H](Cc3ccc(Cl)c(Cl)c3)NC(=O)[C@H](CC3CCCC3)NC4=O)NC(=O)[C@H](Cc3ccccc3)NC(=O)[C@H](C)NC(=O)C(C)(C)NC(=O)[C@H](Cc3cccc(C(=O)O)c3)NC(=O)[C@H](CC(=O)O)NC1=O)NC(=O)[C@H](CC(C)(C)C)NC(=O)[C@H](CC(=O)O)NC2=O` (single isomer, unassigned) [I-475, Ac-PL3-Asp-Npg-B5-Asp-3COOHF-Aib-Ala-Phe-Lys*3-PyrS2-CypA-34ClF-GlnR*3-Ala-NH2] was run?
A: < 50 nM

Q: And the IC50 [2]?
A: 3 to 10 µM

Q: How did the IC50 [1] turn out when `CCCC[C@@H]1NC(=O)[C@H](C)NC(=O)C(C)(C)NC(=O)[C@H](Cc2cccc(C(=O)O)c2)NC(=O)[C@H](CC(=O)O)NC(=O)C2(CCCC=CCCCOC(=O)N3CC[C@@]4(C3)NC(=O)[C@H](CCCCNC(=O)CC[C@@H](C(=O)N[C@@H](C)C(N)=O)NC(=O)[C@H](Cc3ccc(Cl)c(Cl)c3)NC(=O)[C@H](Cc3ccccc3)NC4=O)NC1=O)CCCC=CC[C@]1(CCCN1C(C)=O)C(=O)N[C@@H](CC(=O)O)C(=O)N[C@@H](CC(C)(C)C)C(=O)N2` (single isomer, unassigned) [I-479, Ac-PL3-Asp-Npg-B5-Asp-3COOHF-Aib-Ala-nLeu-Lys*3-PyrS2-Phe-34ClF-GlnR*3-Ala-NH2] was run?
A: < 50 nM

Q: What about the IC50 [2] of the same compound?
A: 3 to 10 µM

Q: Which IC50 [1] does the source give for `CC(=O)N1CCC[C@]12CC=CCCCC1(CCCC=CCCCOC(=O)N3CC[C@@]4(C3)NC(=O)[C@H](CCCCNC(=O)CC[C@@H](C(=O)N[C@@H](C)C(N)=O)NC(=O)[C@H](Cc3ccc5ccccc5c3)NC(=O)[C@H](Cc3ccccc3)NC4=O)NC(=O)[C@H](Cc3ccccc3)NC(=O)[C@H](C)NC(=O)C(C)(C)NC(=O)[C@H](Cc3cccc(C(=O)O)c3)NC(=O)[C@H](CC(=O)O)NC1=O)NC(=O)[C@H](CC(C)(C)C)NC(=O)[C@H](CC(=O)O)NC2=O` (single isomer, unassigned) [I-483, Ac-PL3-Asp-Npg-B5-Asp-3COOHF-Aib-Ala-Phe-Lys*3-PyrS2-Phe-2NapA-GlnR*3-Ala-NH2] here?
A: < 50 nM

Q: What about the IC50 [2] of the same compound?
A: 3 to 10 µM

Q: `CC(=O)N1CCC[C@]12CC=CCCCC1(CCCC=CCCCOC(=O)N3CC[C@@]4(C3)NC(=O)[C@H](CCCCNC(=O)CC[C@@H](C(=O)N[C@@H](C)C(N)=O)NC(=O)[C@H](Cc3ccc5ccccc5c3)NC(=O)[C@H](Cc3ccsc3)NC4=O)NC(=O)[C@H](Cc3ccccc3)NC(=O)[C@H](C)NC(=O)C(C)(C)NC(=O)[C@H](Cc3cccc(C(=O)O)c3)NC(=O)[C@H](CC(=O)O)NC1=O)NC(=O)[C@H](CC(C)(C)C)NC(=O)[C@H](CC(=O)O)NC2=O` (single isomer, unassigned) [I-485, Ac-PL3-Asp-Npg-B5-Asp-3COOHF-Aib-Ala-Phe-Lys*3-PyrS2-3Thi-2NapA-GlnR*3-Ala-NH2] was tested. Which IC50 [1] did it give?
A: < 50 nM

Q: And the IC50 [2]?
A: 3 to 10 µM

Q: `CC(=O)N1CCC[C@]12CC=CCCCC1(CCCC=CCCCOC(=O)N3CC[C@@]4(C3)NC(=O)[C@H](CCCCNC(=O)CC[C@@H](C(=O)N[C@@H](C)C(N)=O)NC(=O)[C@H](Cc3ccc5ccccc5c3)NC(=O)[C@H](Cc3ccccc3Cl)NC4=O)NC(=O)[C@H](Cc3ccccc3)NC(=O)[C@H](C)NC(=O)C(C)(C)NC(=O)[C@H](Cc3cccc(C(=O)O)c3)NC(=O)[C@H](CC(=O)O)NC1=O)NC(=O)[C@H](CC(C)(C)C)NC(=O)[C@H](CC(=O)O)NC2=O` (single isomer, unassigned) [I-487, Ac-PL3-Asp-Npg-B5-Asp-3COOHF-Aib-Ala-Phe-Lys*3-PyrS2-2ClF-2NapA-GlnR*3-Ala-NH2] was tested. Which IC50 [1] did it give?
A: < 50 nM

Q: What about the IC50 [2] of the same compound?
A: 3 to 10 µM

Q: With `CC(=O)N1CCC[C@]12CC=CCCCC1(CCCC=CCCCOC(=O)N3CC[C@@]4(C3)NC(=O)[C@H](CCCCNC(=O)CC[C@@H](C(=O)N[C@@H](CC(C)C)C(=O)N[C@@H](CCC(=O)O)C(=O)N[C@@H](C)C(N)=O)NC(=O)[C@H](Cc3csc5ccccc35)NC(=O)[C@H](Cc3ccsc3)NC4=O)NC(=O)[C@H](Cc3ccccc3)NC(=O)[C@H](C)NC(=O)C(C)(C)NC(=O)[C@H](Cc3cccc(C(=O)O)c3)NC(=O)[C@H](CC(=O)O)NC1=O)NC(=O)[C@H](CC(C)(C)C)NC(=O)[C@H](CC(=O)O)NC2=O` (single isomer, unassigned) [I-494, Ac-PL3-Asp-Npg-B5-Asp-3COOHF-Aib-Ala-Phe-Lys*3-PyrS2-3Thi-BztA-GlnR*3-Leu-Glu-Ala-NH2] as the compound, how does the IC50 [1] read?
A: < 50 nM

Q: What about the IC50 [2] of the same compound?
A: 3 to 10 µM

Q: With `CC(=O)N1CCC[C@]12CC=CCCCC1(CCCC=CCCCOC(=O)N3CC[C@@]4(C3)NC(=O)[C@H](CCCCNC(=O)CC[C@@H](C(=O)N[C@@H](CC(C)C)C(=O)N[C@@H](CO)C(=O)N[C@@H](C)C(N)=O)NC(=O)[C@H](Cc3csc5ccccc35)NC(=O)[C@H](Cc3ccsc3)NC4=O)NC(=O)[C@H](Cc3ccccc3)NC(=O)[C@H](C)NC(=O)C(C)(C)NC(=O)[C@H](Cc3cccc(C(=O)O)c3)NC(=O)[C@H](CC(=O)O)NC1=O)NC(=O)[C@H](CC(C)(C)C)NC(=O)[C@H](CC(=O)O)NC2=O` (single isomer, unassigned) [I-496, Ac-PL3-Asp-Npg-B5-Asp-3COOHF-Aib-Ala-Phe-Lys*3-PyrS2-3Thi-BztA-GlnR*3-Leu-Ser-Ala-NH2] as the compound, how does the IC50 [1] read?
A: < 50 nM

Q: And the IC50 [2]?
A: 3 to 10 µM

Q: How did the IC50 [1] turn out when `CC(=O)N1CCC[C@]12CC=CCCCC1(CCCC=CCCCOC(=O)N3CC[C@@]4(C3)NC(=O)[C@H](CCCCNC(=O)CC[C@@H](C(=O)N[C@@H](CC(C)C)C(=O)N[C@H](C(=O)N[C@@H](C)C(N)=O)[C@@H](C)O)NC(=O)[C@H](Cc3csc5ccccc35)NC(=O)[C@H](Cc3ccsc3)NC4=O)NC(=O)[C@H](Cc3ccccc3)NC(=O)[C@H](C)NC(=O)C(C)(C)NC(=O)[C@H](Cc3cccc(C(=O)O)c3)NC(=O)[C@H](CC(=O)O)NC1=O)NC(=O)[C@H](CC(C)(C)C)NC(=O)[C@H](CC(=O)O)NC2=O` (single isomer, unassigned) [I-498, Ac-PL3-Asp-Npg-B5-Asp-3COOHF-Aib-Ala-Phe-Lys*3-PyrS2-3Thi-BztA-GlnR*3-Leu-Thr-Ala-NH2] was run?
A: < 50 nM

Q: What about the IC50 [2] of the same compound?
A: 1.5 to 3 µM

Q: What does the source list for `CC(=O)N1CCC[C@]12CC=CCCCC1(CCCC=CCCCOC(=O)N3CC[C@@]4(C3)NC(=O)[C@H](CCCCNC(=O)CC[C@@H](C(=O)N[C@@H](CC(C)C)C(=O)N[C@H](C(=O)N[C@@H](C)C(N)=O)[C@H](C)O)NC(=O)[C@H](Cc3csc5ccccc35)NC(=O)[C@H](Cc3ccsc3)NC4=O)NC(=O)[C@H](Cc3ccccc3)NC(=O)[C@H](C)NC(=O)C(C)(C)NC(=O)[C@H](Cc3cccc(C(=O)O)c3)NC(=O)[C@H](CC(=O)O)NC1=O)NC(=O)[C@H](CC(C)(C)C)NC(=O)[C@H](CC(=O)O)NC2=O` (single isomer, unassigned) [I-500, Ac-PL3-Asp-Npg-B5-Asp-3COOHF-Aib-Ala-Phe-Lys*3-PyrS2-3Thi-BztA-GlnR*3-Leu-aThr-Ala-NH2]?
A: IC50 [1]: < 50 nM; IC50 [2]: 1.5 to 3 µM

Q: What does the source list for `CC(=O)N1CCC[C@]12CC=CCCCC1(CCCC=CCCCOC(=O)N3CC[C@@]4(C3)NC(=O)[C@H](CCCCNC(=O)CC[C@@H](C(=O)N[C@@H](CC(C)C)C(=O)N[C@@H](CC(=O)O)C(=O)N[C@@H](CC(C)C)C(N)=O)NC(=O)[C@H](Cc3csc5ccccc35)NC(=O)[C@H](Cc3ccsc3)NC4=O)NC(=O)[C@H](Cc3ccccc3)NC(=O)[C@H](C)NC(=O)C(C)(C)NC(=O)[C@H](Cc3cccc(C(=O)O)c3)NC(=O)[C@H](CC(=O)O)NC1=O)NC(=O)[C@H](CC(C)(C)C)NC(=O)[C@H](CC(=O)O)NC2=O` (single isomer, unassigned) [I-502, Ac-PL3-Asp-Npg-B5-Asp-3COOHF-Aib-Ala-Phe-Lys*3-PyrS2-3Thi-BztA-GlnR*3-Leu-Asp-Leu-NH2]?
A: IC50 [1]: < 50 nM; IC50 [2]: 3 to 10 µM

Q: For `CC(=O)N1CCC[C@]12CC=CCCCC1(CCCC=CCCCOC(=O)N3CC[C@@]4(C3)NC(=O)[C@H](CCCCNC(=O)CC[C@@H](C(=O)N[C@@H](CC(C)C)C(=O)N[C@@H](CCC(=O)O)C(=O)N[C@@H](CC(C)C)C(N)=O)NC(=O)[C@H](Cc3csc5ccccc35)NC(=O)[C@H](Cc3ccsc3)NC4=O)NC(=O)[C@H](Cc3ccccc3)NC(=O)[C@H](C)NC(=O)C(C)(C)NC(=O)[C@H](Cc3cccc(C(=O)O)c3)NC(=O)[C@H](CC(=O)O)NC1=O)NC(=O)[C@H](CC(C)(C)C)NC(=O)[C@H](CC(=O)O)NC2=O` (single isomer, unassigned) [I-504, Ac-PL3-Asp-Npg-B5-Asp-3COOHF-Aib-Ala-Phe-Lys*3-PyrS2-3Thi-BztA-GlnR*3-Leu-Glu-Leu-NH2], which IC50 [1] is on record?
A: < 50 nM

Q: And the IC50 [2]?
A: 3 to 10 µM

Q: Which results are given for `CC(=O)N1CCC[C@]12CC=CCCCC1(CCCC=CCCCOC(=O)N3CC[C@@]4(C3)NC(=O)[C@H](CCCCNC(=O)CC[C@@H](C(=O)N[C@H](C(=O)N[C@H](C(=O)N[C@@H](C)C(N)=O)[C@@H](C)O)C(C)C)NC(=O)[C@H](Cc3csc5ccccc35)NC(=O)[C@H](Cc3ccsc3)NC4=O)NC(=O)[C@H](Cc3ccccc3)NC(=O)[C@H](C)NC(=O)C(C)(C)NC(=O)[C@H](Cc3cccc(C(=O)O)c3)NC(=O)[C@H](CC(=O)O)NC1=O)NC(=O)[C@H](CC(C)(C)C)NC(=O)[C@H](CC(=O)O)NC2=O` (single isomer, unassigned) [I-508, Ac-PL3-Asp-Npg-B5-Asp-3COOHF-Aib-Ala-Phe-Lys*3-PyrS2-3Thi-BztA-GlnR*3-Val-Thr-Ala-NH2]?
A: IC50 [1]: < 50 nM; IC50 [2]: 1.5 to 3 µM
